Target: [^3H]mazindol binding site, striatal membranes (Mus musculus, UniProt Q61327)
Test: biochemical
Method: This group is used only for anatomical studies looking for cell loss in the substantive nigra cells (SNc). All other studies are performed in C57 black mice.

The chains behind the UniProt entries cited, without tags or fusion partners.
UniProt Q61327, whole entry: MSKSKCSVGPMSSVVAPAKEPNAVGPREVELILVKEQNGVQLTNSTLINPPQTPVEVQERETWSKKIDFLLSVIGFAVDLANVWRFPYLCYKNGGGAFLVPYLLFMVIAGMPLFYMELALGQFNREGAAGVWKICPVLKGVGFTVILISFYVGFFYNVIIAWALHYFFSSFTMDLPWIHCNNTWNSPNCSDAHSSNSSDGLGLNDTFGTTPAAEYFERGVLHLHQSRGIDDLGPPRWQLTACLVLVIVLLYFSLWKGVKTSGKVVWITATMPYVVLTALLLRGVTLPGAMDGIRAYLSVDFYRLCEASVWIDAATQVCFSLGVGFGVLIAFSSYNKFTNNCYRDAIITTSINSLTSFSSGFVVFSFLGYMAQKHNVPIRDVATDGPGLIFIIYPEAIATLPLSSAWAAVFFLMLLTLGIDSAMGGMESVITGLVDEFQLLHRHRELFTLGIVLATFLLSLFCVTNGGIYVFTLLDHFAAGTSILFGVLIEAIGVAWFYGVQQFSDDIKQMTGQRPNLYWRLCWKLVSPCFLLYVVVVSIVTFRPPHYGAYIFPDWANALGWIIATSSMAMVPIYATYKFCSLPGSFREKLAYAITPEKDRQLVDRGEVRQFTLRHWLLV

## OC1(c2ccc(Cl)cc2)c2ccccc2C2=NCCN21 (stereo not shown) [[^3H]Mazindol, mazindol]
  Kd: 17.6 nM
